The subject of test [1] is T47D cells ectopically expressing ESR1-CCDC170 variants. To be noted: estrogen-deprived; tamoxifen 0.5 µM plus lapatinib 0.5 µM or dasatinib 0.05 µM.
Test [2] has as its system T47D xenograft tumors expressing E2-E7.
The subject of test [3] is T47D xenograft tumors expressing E2-E10.
Test [4] has as its system T47D xenograft tumors expressing vector. To be noted: vector group; tamoxifen 25 ug/kg subcutaneously 5 days/week.

As to `Cc1nc(Nc2ncc(C(=O)Nc3c(C)cccc3Cl)s2)cc(N2CCN(CCO)CC2)n1` [dasatinib], the “colony formations, tamoxifen plus inhibitor compared to tamoxifen monotreatment” value in test [1] was “significantly reduced”.
The same measure, in the same setting: the entry for `CS(=O)(=O)CCNCc1ccc(-c2ccc3ncnc(Nc4ccc(OCc5cccc(F)c5)c(Cl)c4)c3c2)o1` [lapatinib] is “significantly reduced”.
Regarding `CC/C(=C(\c1ccccc1)c1ccc(OCCN(C)C)cc1)c1ccccc1` [tamoxifen], the “regression-free survival (time to tumor halving), Kaplan-Meier” value in test [2] (E2-E7-overexpressing tumors treated with tamoxifen compared to vector control tumors) and in test [3] (E2-E10-overexpressing tumors treated with tamoxifen compared to vector control tumors) was “significantly worse regression-free survival” each time. Moreover, the “response of xenografts to tamoxifen treatment” value in test [2] (E2-E7 expressing T47D xenografts) is given as “partial response”; in test [3] (E2-E10 expressing T47D xenografts), “stable/progressive disease”. The “decrease in tumor size” value in test [2] (E2-E7 expressing tumors, tamoxifen 25 ug/kg subcutaneously 5 days/week) stood at 14%; in test [4] it was 51%. Also, the “change in tumor volumes” value in test [3] (E2-E10 expressing tumors, tamoxifen 25 ug/kg subcutaneously 5 days/week) is listed as “almost two folds increase in tumor volumes”.

These data come from patent US20230175069A1, “COMPOSITIONS AND METHODS FOR DETECTING GENE FUSIONS OF ESR1 AND CCDC170 FOR DETERMINING INCREASED RESISTANCE TO ENDOCRINE THERAPY AND FOR CANCER TREATMENT” (UNIVERSITY OF PITTSBURGH-OF THE COMMONWEAL TH SYSTEM OF …, priority 2020, published 2023).
